Measured values from patent US7462599B2, “Use of effectors of glutaminyl and glutamate cyclases” (Probiodrug AG, priority 2003, dated 2008).

The chains behind the UniProt entries cited, without tags or fusion partners. Residues count along the entry.
UniProt O81226, 1-288: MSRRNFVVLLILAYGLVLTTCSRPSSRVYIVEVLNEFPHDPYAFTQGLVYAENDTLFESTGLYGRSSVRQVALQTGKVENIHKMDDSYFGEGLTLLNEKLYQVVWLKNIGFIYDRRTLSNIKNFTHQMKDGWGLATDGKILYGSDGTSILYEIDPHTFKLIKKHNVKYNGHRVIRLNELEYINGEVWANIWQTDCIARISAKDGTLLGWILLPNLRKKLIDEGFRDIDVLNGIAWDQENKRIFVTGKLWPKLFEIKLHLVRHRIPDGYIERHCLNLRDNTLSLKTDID

Tests used:
Papaya QC [1] = target: T1, Papaya QC (Carica papaya, UniProt O81226); assay: Continuous spectrophotometric assay of substrate conversion, papaya QC; details: for Ki / Ki*: n.i. = no inhibition
Papaya QC [2] = target: T1, Papaya QC; assay: Fluorometric QC assay with pyroglutamyl aminopeptidase as auxiliary enzyme, papaya QC; details: for inhibition of papaya QC by the peptide: H-Gln-AMC as substrate; for pH-optimum of cyclization: first-order rate-law conditions; for conversion by papaya QC: analyzed fluorometrically
Papaya QC [3] = target: T1, Papaya QC; assay: MALDI-TOF qualitative substrate conversion, papaya QC
Papaya QC [4] = assay: Continuous spectrophotometric assay of substrate conversion, papaya QC
[5] = 0.05 M Tricine-NaOH, pH 8.0, 0.5 M KCl
[6] = Table 6, for substrate inhibition
[7] = 0.1 M pyrophosphate buffer, pH 6.1

NC(=O)CCC(N)C(N)=O (centres unmarked)
kcat (Papaya QC [1]; 0.05 M Tricine-NaOH, pH 8.0): 43.4 ± 0.4 s⁻¹ | kcat (Papaya QC [1]; [5]): 45.2 ± 0.3 s⁻¹ | Ki (Papaya QC [1]; [5]): n.i. | Ki (Papaya QC [1]; 0.05 M Tricine-NaOH, pH 8.0): n.i. | Km (Papaya QC [1]; Table 6): 433 µM | kcat (Papaya QC [1]; Table 6): 44.8 ± 0.4 s⁻¹ | Ki* (Papaya QC [1]; [6]): n.i.

C[C@H](NC(=O)[C@H](C)NC(=O)[C@H](C)NC(=O)[C@H](C)NC(=O)[C@@H](N)CCC(N)=O)C(N)=O [H-Gln-Ala-Ala-Ala-Ala-NH2]
Km (Papaya QC [1]; Table 7, substrate length): 197 µM | kcat (Papaya QC [1]; Table 7, substrate length): 74.6 ± 1.0 s⁻¹

C[C@H](NC(=O)[C@H](C)NC(=O)[C@@H](N)CCC(N)=O)C(N)=O [H-Gln-Ala-Ala-NH2]
Km (Papaya QC [1]; Table 7, substrate length): 164 µM | kcat (Papaya QC [1]; Table 7, substrate length): 83.2 ± 1.0 s⁻¹

C[C@H](NC(=O)[C@H](C)NC(=O)[C@H](CO)NC(=O)[C@H](C)NC(=O)[C@H](C)NC(=O)[C@@H](N)CCC(N)=O)C(N)=O [H-Gln-Ala-Ala-Ser-Ala-Ala-NH2]
Km (Papaya QC [1]; Table 7, substrate length): 216 µM | kcat (Papaya QC [1]; Table 7, substrate length): 78.5 ± 1.0 s⁻¹

C[C@H](NC(=O)[C@@H](N)CCC(N)=O)C(N)=O [H-Gln-Ala-NH2]
Km (Papaya QC [1]; Table 7, substrate length): 212 µM | kcat (Papaya QC [1]; Table 7, substrate length): 62.8 ± 3.0 s⁻¹

C[C@H](NC(=O)[C@@H](N)CCC(N)=O)C(=O)O [H-Gln-Ala-OH]
Km (Papaya QC [1]; 0.05 M Tricine-NaOH, pH 8.0): 137 µM | kcat (Papaya QC [1]; 0.05 M Tricine-NaOH, pH 8.0): 69.7 ± .9 s⁻¹ | kcat (Papaya QC [1]; [5]): 68.1 ± 0.6 s⁻¹ | Ki (Papaya QC [1]; [5]): n.i. | Ki (Papaya QC [1]; 0.05 M Tricine-NaOH, pH 8.0): n.i. | Km (Papaya QC [1]; Table 6): 158 µM | kcat (Papaya QC [1]; Table 6): 69.8 ± 1.0 s⁻¹ | Ki* (Papaya QC [1]; [6]): n.i.

NC(=O)CC[C@H](NC(=O)[C@@H](N)CCC(N)=O)C(=O)O [H-Gln-Gln-OH]
Km (Papaya QC [1]; Table 6): 44 µM | kcat (Papaya QC [1]; Table 6): 43.2 ± 0.7 s⁻¹ | Ki* (Papaya QC [1]; [6]): n.i.

NC(=O)CC[C@H](N)C(=O)N[C@@H](CCC(=O)O)C(=O)O [H-Gln-Glu-OH]
Km (Papaya QC [1]; 0.05 M Tricine-NaOH, pH 8.0): 98 µM | kcat (Papaya QC [1]; 0.05 M Tricine-NaOH, pH 8.0): 45.0 ± 0.5 s⁻¹ | kcat (Papaya QC [1]; [5]): 44.4 ± 0.3 s⁻¹ | Ki (Papaya QC [1]; [5]): n.i. | Ki (Papaya QC [1]; 0.05 M Tricine-NaOH, pH 8.0): n.i. | Km (Papaya QC [1]; Table 6): 106 µM | kcat (Papaya QC [1]; Table 6): 50.3 ± 0.6 s⁻¹ | Ki* (Papaya QC [1]; [6]): n.i.

NC(=O)CC[C@H](N)C(=O)NCC(=O)O [H-Gln-Gly-OH]
Km (Papaya QC [1]; Table 6): 641 µM | kcat (Papaya QC [1]; Table 6): 45.8 ± 0.4 s⁻¹ | Ki* (Papaya QC [1]; [6]): n.i.

CC(C)(C)OC(=O)C(N)CCC(N)=O (centres unmarked) [H-Gln-OtBu]
Km (Papaya QC [1]; Table 6): 223 µM | kcat (Papaya QC [1]; Table 6): 49.4 ± 0.6 s⁻¹ | Ki* (Papaya QC [1]; [6]): n.i.

NC(=O)CC[C@H](N)C(=O)N[C@@H](Cc1ccc(O)cc1)C(=O)O [H-Gln-Tyr-OH]
Ki* (Papaya QC [1]; [6]): n.i.

CC(C)[C@H](NC(=O)[C@@H](N)CCC(N)=O)C(=O)O [H-Gln-Val-OH]
Ki* (Papaya QC [1]; [6]): n.i.

CC(C)C[C@H](NC(=O)[C@H](CCCNC(=N)N)NC(=O)[C@H](CCCCN)NC(=O)[C@H](Cc1ccccc1)NC(=O)[C@@H](N)CCC(=O)O)C(=O)N[C@@H](C)C(N)=O [H-Glu-Phe-Lys-Arg-Leu-Ala-NH2]
inhibition of papaya QC by the peptide (Papaya QC [2]): not inhibited

H-Gln(NMe)-Phe-Lys-Ala-Glu-NH2
conversion by papaya QC (Papaya QC [3]): only converted into a pyroglutamyl residue by papaya QC

H-Gln-AMC
Km (Papaya QC [1]; Table 6): 42 µM | kcat (Papaya QC [1]; Table 6): 39.4 ± 0.4 s⁻¹

H-Gln-Lys(Gln)-Arg-Leu-Ala-NH2
conversion by papaya QC (Papaya QC [3]): converted

H-Gln-cyclo(Nε-Lys-Arg-Pro-Ala-Gly-Phe)
Km (Papaya QC [1]): 133 µM | kcat (turnover number) (Papaya QC [1]): 49.4 ± 0.6 s⁻¹ | fold higher kcat/KM-value of papaya QC than human QC (Papaya QC [4]): approximately 4 fold

H-Gln-βNA
pH-optimum of cyclization (Papaya QC [2]): 8.0 | Km (Papaya QC [1]; 0.05 M Tricine-NaOH, pH 8.0): 36 µM | kcat (Papaya QC [1]; 0.05 M Tricine-NaOH, pH 8.0): 48.8 ± 1.0 s⁻¹ | Km (Papaya QC [1]; [5]): 32 µM | kcat (Papaya QC [1]; [5]): 47.2 ± 0.8 s⁻¹ | Ki (Papaya QC [1]; [5]): 1330 µM | Ki (Papaya QC [1]; 0.05 M Tricine-NaOH, pH 8.0): 1140 µM | Km (Papaya QC [1]; Table 6): 38 µM | kcat (Papaya QC [1]; Table 6): 51.4 ± 1.4 s⁻¹ | Ki (Papaya QC [1]; [6]): 1200 µM

H-Glu(OMe)-Phe-Lys-Arg-Leu-Ala-NH2
inhibition of papaya QC by the peptide (Papaya QC [2]): not inhibited

H-Glu(OMe)-β-naphthylamide
conversion by papaya QC (Papaya QC [2]): Neither of these compounds were converted

H-Glu-βNA
fold difference of specificity constants (Gln vs Glu cyclization) at the respective pH-optima (Papaya QC [2]): approximately 80,000 fold | Km (Papaya QC [2]; 0.1 M borate buffer, pH 8.5): 1760 µM | kcat (Papaya QC [2]; 0.1 M borate buffer, pH 8.5): 0.00933 ± 0.00017 s⁻¹ | Km (Papaya QC [2]; 0.1 M phosphate buffer, pH 7.5): 1450 µM | kcat (Papaya QC [2]; 0.1 M phosphate buffer, pH 7.5): 0.0153 ± 0.00017 s⁻¹ | Km (Papaya QC [2]; [7]): 1130 µM | kcat (Papaya QC [2]; [7]): 0.0188 ± 0.00067 s⁻¹ | conversion by papaya QC (Papaya QC [2]): Neither of these compounds were converted | ratio of QC versus EC activity (Papaya QC [2]; around pH 6.0): about 8,000 | pH-optimum of cyclization (Papaya QC [2]): 6.0

H-βhomoGln-Phe-Lys-Arg-Leu-Ala-NH2
Km (Papaya QC [1]): 3100 µM | kcat (turnover number) (Papaya QC [1]): 4.0 ± 0.4 s⁻¹
